In assay [1] the target is Carbonic anhydrase 12 (Homo sapiens, UniProt O43570). The assay is described as follows: Inhibition of human carbonic anhydrase 12 preincubated for 6 hrs by CO2 hydration stopped-flow assay.
In assay [2] the target is Carbonic anhydrase 9 (Homo sapiens, UniProt Q16790). Description: Inhibition of human carbonic anhydrase 9 preincubated for 6 hrs by CO2 hydration stopped-flow assay. The method, boiled down: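 Recombinant enzymes were used at 8.6 nM for CA II and 6.9 nM for CA IX. Each was preincubated with inhibitor for 6 h at room temperature. CO2 hydration was followed for 10-100 s by phenol red (0.2 mM) absorbance in 10 mM Hepes pH 7.5 with 0.1 M NaClO4. The substrate was saturated CO2 water at 20 °C, and inhibitor dilutions went down to 1 nM. IC50 was fitted by non-linear least squares at 1.7 mM CO2 and converted to Ki by Cheng-Prusoff, from three determinations.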

What is called Ki is a dissociation constant, usually derived from enzyme kinetics or from competition with a known ligand.

With `O=c1ccc2ccccc2o1` [COUMARIN], the Ki in assay [1] and in assay [2] was greater than 1 mM in each case.

The record behind these values is ChEMBL document CHEMBL2331395, “Natural product coumarins that inhibit human carbonic anhydrases” (Bioorg Med Chem, 2013).
